In paper PMC9604285, “Rat Group IIA Secreted Phospholipase A2 Binds to Cytochrome c Oxidase and Inhibits Its Activity: A Possible Episode in the Development of Alzheimer’s Disease” (International Journal of Molecular Sciences, 2022):

Legend:
[1] = target: subunit II of cytochrome c oxidase (CCOX-II) (porcine (endogenous in cerebral cortex)) (UniProt P50667); assay: cross-linking
[2] = target: T1, subunit II of cytochrome c oxidase (CCOX-II) (porcine (endogenous in cerebral cortex), UniProt P50667 1-228); assay: cross-linking; settings: one partner purified
T1 construct: also called CCOX subunit II; 25 kDa receptor

With “rGIIA(D49S), enzymatically inactive mutant of recombinant rat GIIA (enzyme)” the IC50 [1] was 2200 nM.

B1: recombinant rat group IIA secreted phospholipase A2 (rGIIA) (enzyme, UniProt P14423 22-146, looked up)
chain: SLLEFGQMILFKTGKRADVSYGFYGCHCGVGGRGSPKDATDWCCVTHDCCYNRLEKRGCGTKFLTYKFSYRGGQISCSTNQDSCRKQLCQCDKAAAECFARNKKSYSLKYQFYPNKFCKGKTPSC
notes: also called rat GIIA; rGIIA-CHS (coupled to CH-Sepharose)
With B1 the IC50 [2] was 1200 nM.
